The test concerns the target FGFR4-WT (Homo sapiens (Human), UniProt P22455). Briefly: Omnia assay for potency assessment against FGFR4 enzyme. Type of test: biochemical. The note with it: method a: [FGFR4-WT]=10 nM (Invitrogen), [ATP]=300 uM, [Y10-Sox]=10 uM. The procedure:
A 10× stock solution of FGFR4-WT (PR4380C), (from Invitrogen, Carlsbad, Calif.) corresponding to method a in Table 7, was prepared as described below. Alternatively, a 10× stock solution of FGFR4-WT (F01-11G), (SignalChem, Richmond, BC) corresponding to method b in Table 7, was prepared as described below. A solution of 1.4×ATP (AS001A) and 5× Tyr-Sox conjugated peptide substrate (KNZ3101) were prepared in 1× kinase reaction buffer consisting of 20 mM Tris, pH 7.5, 5 mM MgCl2, 1 mM EGTA, 5 mM β-glycerophosphate, 5% glycerol (10× stock, KB002A) and 0.2 mM DTT (DS001A). […] The serially diluted compounds were prepared on a Tecan EVO100. A second addition of 10 μl of Tyr-Sox FGFR4 substrate was added to each well and the kinase reactions were started with the addition of 35 μL of 1.4×ATP. The reactions were monitored every 71 seconds for 240 minutes at λex360/λem485 in a Synergy plate reader from BioTek (Winooski, Vt.).

Sequences of proteins named here, by UniProt entry; tags and fusion partners are left off. Residues count along the entry.
UniProt P22455, 22-802: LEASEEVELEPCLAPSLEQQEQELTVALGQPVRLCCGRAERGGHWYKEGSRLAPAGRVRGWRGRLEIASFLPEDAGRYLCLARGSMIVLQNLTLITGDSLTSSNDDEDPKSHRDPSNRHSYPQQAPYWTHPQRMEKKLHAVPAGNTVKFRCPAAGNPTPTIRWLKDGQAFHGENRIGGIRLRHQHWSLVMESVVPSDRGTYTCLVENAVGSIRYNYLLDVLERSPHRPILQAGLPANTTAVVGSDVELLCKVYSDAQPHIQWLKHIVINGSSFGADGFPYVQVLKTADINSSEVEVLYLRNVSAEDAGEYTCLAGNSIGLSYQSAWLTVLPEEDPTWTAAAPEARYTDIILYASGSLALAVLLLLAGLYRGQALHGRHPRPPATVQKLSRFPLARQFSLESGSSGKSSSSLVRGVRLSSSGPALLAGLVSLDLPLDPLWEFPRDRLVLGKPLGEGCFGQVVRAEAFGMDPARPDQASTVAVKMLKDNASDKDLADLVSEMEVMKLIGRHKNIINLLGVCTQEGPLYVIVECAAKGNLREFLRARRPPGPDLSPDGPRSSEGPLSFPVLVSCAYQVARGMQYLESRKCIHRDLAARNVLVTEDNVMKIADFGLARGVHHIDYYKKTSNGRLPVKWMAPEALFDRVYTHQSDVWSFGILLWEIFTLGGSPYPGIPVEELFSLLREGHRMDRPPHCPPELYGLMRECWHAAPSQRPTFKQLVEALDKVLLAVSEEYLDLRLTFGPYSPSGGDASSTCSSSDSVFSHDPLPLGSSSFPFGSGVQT

Each structure is given as a SMILES string.

As usually defined, the IC50 is the concentration at which inhibition is half-maximal.

With `C=CC(=O)N[C@@H]1CCCC[C@@H]1Nc1ncc2c(n1)N(C)C(=O)N(c1c(Cl)c(OC)cc(OC)c1Cl)C2` [Compound I-94], the half-maximal inhibitory concentration (IC50) is > 1000 nM.

Values taken from patent publication US9695132B2, “Heteroaryl compounds and uses thereof” (Celgene CAR LLC, priority 2013, dated 2017).
